In ChEMBL document CHEMBL4184306, “The synthesis and evaluation of thymoquinone analogues as anti-ovarian cancer and antimalarial agents” (Bioorg Med Chem Lett, 2018):

Test system: A2780 (human)
Test: Selectivity index, ratio of IC50 for SV-40 immortalized human ovarian epithelial cells to IC50 for human A2780 cells

## CC1=CC(=O)C(C(C)C)=CC1=O [THYMOQUINONE]
  selectivity ratio: 2.3
